Target: CSF1R (Homo sapiens, UniProt P07333)
Assay: In vitro multi-kinase activity, IC50
Type: biochemical
Conditions: read-out: IC50 CSF1R

Sequences of proteins named here, by UniProt entry; tags and fusion partners are left off. Residues count along the entry.
UniProt P07333, 20-972 limits assumed: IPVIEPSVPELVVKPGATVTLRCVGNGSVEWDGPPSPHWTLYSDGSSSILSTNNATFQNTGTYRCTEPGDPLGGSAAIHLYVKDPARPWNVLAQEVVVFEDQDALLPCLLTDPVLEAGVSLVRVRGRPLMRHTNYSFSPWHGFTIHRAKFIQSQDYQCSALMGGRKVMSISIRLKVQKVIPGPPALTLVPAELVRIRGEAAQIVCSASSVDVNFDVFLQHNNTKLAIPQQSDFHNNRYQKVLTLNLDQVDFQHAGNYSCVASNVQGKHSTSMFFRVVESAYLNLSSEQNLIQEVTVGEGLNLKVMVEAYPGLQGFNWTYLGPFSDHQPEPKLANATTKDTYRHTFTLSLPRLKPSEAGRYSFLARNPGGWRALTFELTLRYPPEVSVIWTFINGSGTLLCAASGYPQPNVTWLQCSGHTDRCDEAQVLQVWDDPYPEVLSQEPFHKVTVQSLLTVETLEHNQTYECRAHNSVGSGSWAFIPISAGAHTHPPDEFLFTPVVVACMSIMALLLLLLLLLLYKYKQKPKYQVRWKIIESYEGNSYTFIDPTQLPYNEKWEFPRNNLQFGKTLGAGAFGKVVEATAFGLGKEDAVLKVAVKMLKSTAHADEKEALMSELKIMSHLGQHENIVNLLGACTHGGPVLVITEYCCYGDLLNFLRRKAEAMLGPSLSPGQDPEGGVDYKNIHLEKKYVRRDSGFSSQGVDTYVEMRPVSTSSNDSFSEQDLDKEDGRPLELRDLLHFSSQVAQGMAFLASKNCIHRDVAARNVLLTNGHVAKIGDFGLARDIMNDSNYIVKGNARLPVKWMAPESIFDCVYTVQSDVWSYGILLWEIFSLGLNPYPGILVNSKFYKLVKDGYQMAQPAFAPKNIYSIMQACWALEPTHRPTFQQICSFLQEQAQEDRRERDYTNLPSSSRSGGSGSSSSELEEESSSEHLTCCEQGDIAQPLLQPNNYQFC

IC50: > 10 µM
SMILES: CCN1CCN(Cc2ccc(Nc3ncc(F)c(-c4cc(F)c5nc(C)n(C(C)C)c5c4)n3)nc2)CC1

— patent US20240374601A1, “METHODS AND COMPOSITIONS FOR TREATING CANCER” (Onconova Therapeutics, Inc., priority 2021, published 2024)
